Measured values taken from patent US7476763B2, “Oxo-substituted cyclohexyl-1,4-diamine compounds” (dated 2009).

The chains behind the UniProt entries cited, without tags or fusion partners. Where a name states a change or a piece, a line headed by the entry shows the natural chain unless it says otherwise.
UniProt P35372, whole entry, looked up: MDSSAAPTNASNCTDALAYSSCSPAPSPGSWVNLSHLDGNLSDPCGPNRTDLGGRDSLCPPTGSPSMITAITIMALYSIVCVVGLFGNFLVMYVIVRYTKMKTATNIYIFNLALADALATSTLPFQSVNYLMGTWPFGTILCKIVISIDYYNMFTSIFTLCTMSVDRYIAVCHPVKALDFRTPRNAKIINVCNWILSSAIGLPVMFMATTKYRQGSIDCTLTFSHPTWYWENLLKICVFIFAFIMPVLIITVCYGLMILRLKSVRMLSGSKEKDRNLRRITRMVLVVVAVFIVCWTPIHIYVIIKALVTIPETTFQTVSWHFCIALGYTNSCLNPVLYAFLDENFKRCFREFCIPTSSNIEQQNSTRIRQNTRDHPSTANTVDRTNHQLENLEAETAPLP
UniProt P41146: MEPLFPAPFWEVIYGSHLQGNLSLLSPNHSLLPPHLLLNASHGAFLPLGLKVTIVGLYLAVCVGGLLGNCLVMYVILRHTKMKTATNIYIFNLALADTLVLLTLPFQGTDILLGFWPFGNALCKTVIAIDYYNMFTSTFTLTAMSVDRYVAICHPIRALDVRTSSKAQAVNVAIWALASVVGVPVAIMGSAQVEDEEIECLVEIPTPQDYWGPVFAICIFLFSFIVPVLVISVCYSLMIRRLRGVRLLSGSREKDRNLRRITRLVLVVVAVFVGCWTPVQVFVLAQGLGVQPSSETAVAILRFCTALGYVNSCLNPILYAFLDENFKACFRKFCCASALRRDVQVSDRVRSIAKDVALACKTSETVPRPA

The compounds below were run against human μ-opiate receptor (Homo sapiens, UniProt P35372) (assay: Measurement of μ-binding ([3H]-naloxone displacement, CHO-K1 membrane preparation)). Conditions: 1 μM test substance; displacement of [3H]-naloxone.

Compound | μ-binding [1 μM], % inhibition [%]
CN(C)C1(c2cccs2)CCC(NC(=O)CCC(=O)c2ccc(F)cc2)CC1 (centres unmarked) | 100
Cc1ccc(CC2(N(C)C)CCC(NC(=O)CCC(=O)c3ccc(Cl)cc3)CC2)cc1 (centres unmarked) | 42
O=C(CCC(=O)c1ccc(F)cc1)NC1CCC(c2ccccc2)(N2CCCCC2)CC1 (centres unmarked) | 68
CN(C)C1(Cc2ccccc2F)CCC(NC(=O)CCCC(=O)c2ccccc2)CC1 (centres unmarked) | 80
CC(C(=O)NC1CCC(Cc2ccccc2F)(N(C)C)CC1)c1cccc(C(=O)c2ccccc2)c1 (centres unmarked) | 84
CN(C)C1(Cc2cccc(F)c2)CCC(NC(=O)CCC(=O)c2ccc(F)cc2)CC1 (centres unmarked) | 42
CC(=O)C1CC(CC(=O)NC2CCC(Cc3cccc(Cl)c3)(N(C)C)CC2)C1(C)C (centres unmarked) | 55
5-oxo-5-phenyl-valericacid 4-dimethylamino-4-phenyl-cyclohexyl)-amide | 100
4-(4-chloro-phenyl)-N-[4-dimethylamino-4-(2-methyl-benzyl)-cyclohexyl-4-oxobutyramide | 53
O=C(CCCC(=O)c1ccccc1)NC1CCC(c2ccccc2)(N2CCCCC2)CC1 (centres unmarked) | 59
4-(4-chloro-phenyl)-4-dimethylamino-4-(3-fluoro-benzyl)-cyclohexyl]-4-oxo-butyramide | 42
CN(C)C1(CCc2ccccc2)CCC(NC(=O)CCCC(=O)c2ccccc2)CC1 (centres unmarked) | 88
Cc1cccc(CC2(N(C)C)CCC(NC(=O)CCC(=O)c3ccccc3)CC2)c1 (centres unmarked) | 60
CNC1(NC)C(CC(=O)NC2CCC(Cc3cccc(C)c3)(N(C)C)CC2)CC1C(C)=O (centres unmarked) | 68
CNC1(NC)C(CC(=O)NC2CCC(Cc3ccccc3)(N(C)C)CC2)CC1C(C)=O (centres unmarked) | 41
CN(C)C1(Cc2ccccc2Cl)CCC(NC(=O)CCC(=O)c2ccc(Cl)cc2)CC1 (centres unmarked) | 72
CC(=O)C1CC(CC(=O)NC2CCC(Cc3ccc(C)cc3)(N(C)C)CC2)C1(C)C (centres unmarked) | 58
CNC1(NC)C(CC(=O)NC2CCC(Cc3ccccc3)(N3CCCCC3)CC2)CC1C(C)=O (centres unmarked) | 54
CN(C)C1(CCc2ccccc2)CCC(NC(=O)C(=O)c2c[nH]c3ccccc23)CC1 (centres unmarked) | 55
CN(C)C1(Cc2ccc(Cl)cc2)CCC(NC(=O)CCCC(=O)c2ccccc2)CC1 (centres unmarked) | 48
CC(C(=O)NC1CCC(Cc2cccc(Cl)c2)(N(C)C)CC1)c1cccc(C(=O)c2ccccc2)c1 (centres unmarked) | 68
CNC1(NC)C(CC(=O)NC2CCC(Cc3ccccc3F)(N(C)C)CC2)CC1C(C)=O (centres unmarked) | 79

Compound | μ-binding [1 μM], % inhibition [%]
CC(C(=O)NC1CCC(Cc2ccccc2)(N(C)C)CC1)c1cccc(C(=O)c2ccccc2)c1 (centres unmarked) | 80
CN(C)C1(Cc2ccc(F)cc2)CCC(NC(=O)CCC(=O)c2ccccc2)CC1 (centres unmarked) | 54
2-(3-benzofuryl-phenyl)-N-(4-dimethylamino-4-phenethyl-cyclohexyl)-propionamide | 91
CN(C)C1(Cc2ccccc2)CCC(NC(=O)CCC(=O)c2ccc(Cl)cc2)CC1 (centres unmarked) | 50
Cc1cccc(CC2(N(C)C)CCC(NC(=O)C(C)c3cccc(C(=O)c4ccccc4)c3)CC2)c1 (centres unmarked) | 79
CN(C)C1(c2cccc(F)c2)CCC(NC(=O)C(=O)c2c[nH]c3ccccc23)CC1 (centres unmarked) | 79
O=C(CCCC(=O)c1ccccc1)NC1CCC(c2ccccc2)(N2CCOCC2)CC1 (centres unmarked) | 41
CN(C)C1(Cc2ccccc2F)CCC(NC(=O)CCC(=O)c2ccc(F)cc2)CC1 (centres unmarked) | 62
Cc1ccc(CC2(N(C)C)CCC(NC(=O)CCCC(=O)c3ccccc3)CC2)cc1 (centres unmarked) | 56
CN(C)C1(Cc2ccccc2Cl)CCC(NC(=O)CCC(=O)c2ccccc2)CC1 (centres unmarked) | 60
Cc1ccccc1CC1(N(C)C)CCC(NC(=O)C(C)c2cccc(C(=O)c3ccccc3)c2)CC1 (centres unmarked) | 78
Cc1ccc(CC2(N(C)C)CCC(NC(=O)CCC(=O)c3ccccc3)CC2)cc1 (centres unmarked) | 50
CN(C)C1(Cc2cccc(Cl)c2)CCC(NC(=O)CCCC(=O)c2ccccc2)CC1 (centres unmarked) | 65
CNC1(NC)C(CC(=O)NC2CCC(Cc3ccc(Cl)cc3)(N(C)C)CC2)CC1C(C)=O (centres unmarked) | 55
CN(C)C1(Cc2cccc(Cl)c2)CCC(NC(=O)CCC(=O)c2ccc(F)cc2)CC1 (centres unmarked) | 54
CN(C)C1(Cc2ccccc2F)CCC(NC(=O)C(=O)c2c[nH]c3ccccc23)CC1 (centres unmarked) | 57
Cc1ccccc1CC1(N(C)C)CCC(NC(=O)CCC(=O)c2ccccc2)CC1 (centres unmarked) | 61
4-oxo-4-phenyl-(4-phenyl-4-piperidin-1-yl-cyclohexyl)-butyramide | 71
Cc1ccc(CC2(N(C)C)CCC(NC(=O)C(C)c3cccc(C(=O)c4ccccc4)c3)CC2)cc1 (centres unmarked) | 62
CN(C)C1(Cc2ccccc2)CCC(NC(=O)CCC(=O)c2ccc(F)cc2)CC1 (centres unmarked) | 58
4-(4-chloro-phenyl)-4-dimethylamino-4-(4-fluoro-benzyl)-cyclohexyl]-4-oxo-butyramide | 55
CN(C)C1(CCc2ccccc2)CCC(NC(=O)CCC(=O)c2ccccc2)CC1 (centres unmarked) | 61

These compounds were tested against ORL1 receptor (Homo sapiens, UniProt P41146) (assay: Measurement of ORL1 binding (3H-nociceptin/orphanin FQ, membranes of recombinant CHO-ORL1 cells)). Conditions: 1 μM test substance; 0.5 nM 3H-nociceptin/orphanin FQ.

Compound | ORL 1-binding [1 μM], % inhibition [%]
CN(C)C1(c2cccs2)CCC(NC(=O)CCC(=O)c2ccc(F)cc2)CC1 (centres unmarked) | 91
5-oxo-5-phenyl-valericacid 4-dimethylamino-4-phenyl-cyclohexyl)-amide | 100
CN(C)C1(c2cccc(F)c2)CCC(NC(=O)C(=O)c2c[nH]c3ccccc23)CC1 (centres unmarked) | 78
